# From US12409161B2, “Compound for treating neurodegenerative disorders” (FUDAN UNIVERSITY, priority 2019, dated 2025)
# Protein sequences, listed by entry. Tags and fused reporters are not part of them. Chains listed by the source or under a name are the forms on record and can include a tag or linker.
# UniProt P42858, with tags, fused parts or gaps, stated change not applied: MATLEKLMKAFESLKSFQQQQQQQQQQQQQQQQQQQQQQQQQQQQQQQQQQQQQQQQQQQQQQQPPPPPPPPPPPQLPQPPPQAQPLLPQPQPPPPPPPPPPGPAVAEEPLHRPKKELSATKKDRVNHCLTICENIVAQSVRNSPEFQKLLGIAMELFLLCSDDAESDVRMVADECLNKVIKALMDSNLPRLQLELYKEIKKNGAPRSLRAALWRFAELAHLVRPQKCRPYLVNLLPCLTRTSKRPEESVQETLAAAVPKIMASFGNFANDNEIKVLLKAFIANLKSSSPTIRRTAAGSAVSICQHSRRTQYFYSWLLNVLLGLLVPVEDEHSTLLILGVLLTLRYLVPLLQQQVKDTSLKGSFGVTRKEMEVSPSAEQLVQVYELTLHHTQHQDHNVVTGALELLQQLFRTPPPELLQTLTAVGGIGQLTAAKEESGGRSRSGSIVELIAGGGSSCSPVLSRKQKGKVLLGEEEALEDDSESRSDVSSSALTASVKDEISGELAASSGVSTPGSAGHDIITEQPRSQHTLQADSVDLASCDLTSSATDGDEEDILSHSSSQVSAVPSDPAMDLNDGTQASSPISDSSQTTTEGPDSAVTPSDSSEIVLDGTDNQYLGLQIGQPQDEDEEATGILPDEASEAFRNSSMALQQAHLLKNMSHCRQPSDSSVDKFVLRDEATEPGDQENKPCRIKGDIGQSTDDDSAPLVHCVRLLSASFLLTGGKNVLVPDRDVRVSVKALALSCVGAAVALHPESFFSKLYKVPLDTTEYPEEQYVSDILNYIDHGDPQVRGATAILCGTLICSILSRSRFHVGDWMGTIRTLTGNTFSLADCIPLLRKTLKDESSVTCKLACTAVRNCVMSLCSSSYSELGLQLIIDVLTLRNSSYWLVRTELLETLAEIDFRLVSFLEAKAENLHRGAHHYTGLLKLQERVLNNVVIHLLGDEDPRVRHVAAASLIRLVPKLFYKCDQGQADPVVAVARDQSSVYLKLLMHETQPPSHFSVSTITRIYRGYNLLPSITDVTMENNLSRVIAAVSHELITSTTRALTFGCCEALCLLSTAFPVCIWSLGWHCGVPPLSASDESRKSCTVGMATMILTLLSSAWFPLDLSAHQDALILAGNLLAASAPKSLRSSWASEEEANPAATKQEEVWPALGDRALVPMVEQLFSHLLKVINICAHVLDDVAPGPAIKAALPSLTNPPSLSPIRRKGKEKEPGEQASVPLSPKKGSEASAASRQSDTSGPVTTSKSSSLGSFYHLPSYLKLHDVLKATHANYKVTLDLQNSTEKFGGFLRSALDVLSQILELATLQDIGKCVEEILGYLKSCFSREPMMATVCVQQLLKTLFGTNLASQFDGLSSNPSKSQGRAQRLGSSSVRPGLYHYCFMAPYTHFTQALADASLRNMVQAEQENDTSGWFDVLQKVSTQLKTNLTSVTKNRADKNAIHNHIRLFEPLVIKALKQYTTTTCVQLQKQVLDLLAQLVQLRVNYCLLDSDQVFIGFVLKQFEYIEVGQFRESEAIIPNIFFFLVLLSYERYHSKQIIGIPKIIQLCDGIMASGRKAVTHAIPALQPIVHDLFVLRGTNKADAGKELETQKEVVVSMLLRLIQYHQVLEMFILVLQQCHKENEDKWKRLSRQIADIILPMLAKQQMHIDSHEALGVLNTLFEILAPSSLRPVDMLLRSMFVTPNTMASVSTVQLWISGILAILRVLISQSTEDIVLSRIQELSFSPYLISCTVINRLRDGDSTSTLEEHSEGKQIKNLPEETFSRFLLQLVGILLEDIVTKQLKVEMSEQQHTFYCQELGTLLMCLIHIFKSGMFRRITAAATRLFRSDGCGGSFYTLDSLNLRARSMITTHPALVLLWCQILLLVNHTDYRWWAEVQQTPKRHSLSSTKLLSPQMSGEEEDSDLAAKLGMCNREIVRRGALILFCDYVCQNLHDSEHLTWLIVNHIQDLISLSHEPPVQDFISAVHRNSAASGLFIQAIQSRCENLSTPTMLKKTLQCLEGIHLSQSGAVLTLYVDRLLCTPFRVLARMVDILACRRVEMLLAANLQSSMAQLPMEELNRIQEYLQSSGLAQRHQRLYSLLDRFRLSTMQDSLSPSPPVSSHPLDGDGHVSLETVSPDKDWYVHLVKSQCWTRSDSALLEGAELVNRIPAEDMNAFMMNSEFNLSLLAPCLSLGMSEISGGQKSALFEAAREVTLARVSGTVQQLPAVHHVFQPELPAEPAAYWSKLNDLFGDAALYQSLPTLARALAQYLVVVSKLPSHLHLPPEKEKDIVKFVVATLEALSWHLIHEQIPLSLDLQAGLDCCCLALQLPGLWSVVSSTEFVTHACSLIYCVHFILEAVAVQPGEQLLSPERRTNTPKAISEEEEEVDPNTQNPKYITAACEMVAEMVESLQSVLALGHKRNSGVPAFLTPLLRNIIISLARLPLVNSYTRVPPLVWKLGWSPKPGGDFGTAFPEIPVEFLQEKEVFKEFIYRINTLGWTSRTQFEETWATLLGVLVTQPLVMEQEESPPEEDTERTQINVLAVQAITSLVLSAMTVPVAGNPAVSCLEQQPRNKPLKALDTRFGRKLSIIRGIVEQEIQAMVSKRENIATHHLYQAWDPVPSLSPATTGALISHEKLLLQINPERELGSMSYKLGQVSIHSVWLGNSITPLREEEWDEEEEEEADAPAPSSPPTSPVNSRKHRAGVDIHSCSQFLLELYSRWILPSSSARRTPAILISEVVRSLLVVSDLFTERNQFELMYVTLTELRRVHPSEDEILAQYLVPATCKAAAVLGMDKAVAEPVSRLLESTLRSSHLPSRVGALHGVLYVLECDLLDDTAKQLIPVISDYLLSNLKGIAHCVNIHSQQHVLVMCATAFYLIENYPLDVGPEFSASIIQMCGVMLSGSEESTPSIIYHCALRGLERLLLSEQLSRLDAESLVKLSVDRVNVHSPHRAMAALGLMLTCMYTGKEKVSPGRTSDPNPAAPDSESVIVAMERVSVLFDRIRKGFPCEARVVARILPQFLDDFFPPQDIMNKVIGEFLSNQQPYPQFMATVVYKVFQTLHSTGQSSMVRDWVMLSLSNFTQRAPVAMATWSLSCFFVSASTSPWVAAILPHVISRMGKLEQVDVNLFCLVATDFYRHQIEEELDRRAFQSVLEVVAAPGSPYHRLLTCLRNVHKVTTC
# UniProt P42858, with tags, fused parts or gaps: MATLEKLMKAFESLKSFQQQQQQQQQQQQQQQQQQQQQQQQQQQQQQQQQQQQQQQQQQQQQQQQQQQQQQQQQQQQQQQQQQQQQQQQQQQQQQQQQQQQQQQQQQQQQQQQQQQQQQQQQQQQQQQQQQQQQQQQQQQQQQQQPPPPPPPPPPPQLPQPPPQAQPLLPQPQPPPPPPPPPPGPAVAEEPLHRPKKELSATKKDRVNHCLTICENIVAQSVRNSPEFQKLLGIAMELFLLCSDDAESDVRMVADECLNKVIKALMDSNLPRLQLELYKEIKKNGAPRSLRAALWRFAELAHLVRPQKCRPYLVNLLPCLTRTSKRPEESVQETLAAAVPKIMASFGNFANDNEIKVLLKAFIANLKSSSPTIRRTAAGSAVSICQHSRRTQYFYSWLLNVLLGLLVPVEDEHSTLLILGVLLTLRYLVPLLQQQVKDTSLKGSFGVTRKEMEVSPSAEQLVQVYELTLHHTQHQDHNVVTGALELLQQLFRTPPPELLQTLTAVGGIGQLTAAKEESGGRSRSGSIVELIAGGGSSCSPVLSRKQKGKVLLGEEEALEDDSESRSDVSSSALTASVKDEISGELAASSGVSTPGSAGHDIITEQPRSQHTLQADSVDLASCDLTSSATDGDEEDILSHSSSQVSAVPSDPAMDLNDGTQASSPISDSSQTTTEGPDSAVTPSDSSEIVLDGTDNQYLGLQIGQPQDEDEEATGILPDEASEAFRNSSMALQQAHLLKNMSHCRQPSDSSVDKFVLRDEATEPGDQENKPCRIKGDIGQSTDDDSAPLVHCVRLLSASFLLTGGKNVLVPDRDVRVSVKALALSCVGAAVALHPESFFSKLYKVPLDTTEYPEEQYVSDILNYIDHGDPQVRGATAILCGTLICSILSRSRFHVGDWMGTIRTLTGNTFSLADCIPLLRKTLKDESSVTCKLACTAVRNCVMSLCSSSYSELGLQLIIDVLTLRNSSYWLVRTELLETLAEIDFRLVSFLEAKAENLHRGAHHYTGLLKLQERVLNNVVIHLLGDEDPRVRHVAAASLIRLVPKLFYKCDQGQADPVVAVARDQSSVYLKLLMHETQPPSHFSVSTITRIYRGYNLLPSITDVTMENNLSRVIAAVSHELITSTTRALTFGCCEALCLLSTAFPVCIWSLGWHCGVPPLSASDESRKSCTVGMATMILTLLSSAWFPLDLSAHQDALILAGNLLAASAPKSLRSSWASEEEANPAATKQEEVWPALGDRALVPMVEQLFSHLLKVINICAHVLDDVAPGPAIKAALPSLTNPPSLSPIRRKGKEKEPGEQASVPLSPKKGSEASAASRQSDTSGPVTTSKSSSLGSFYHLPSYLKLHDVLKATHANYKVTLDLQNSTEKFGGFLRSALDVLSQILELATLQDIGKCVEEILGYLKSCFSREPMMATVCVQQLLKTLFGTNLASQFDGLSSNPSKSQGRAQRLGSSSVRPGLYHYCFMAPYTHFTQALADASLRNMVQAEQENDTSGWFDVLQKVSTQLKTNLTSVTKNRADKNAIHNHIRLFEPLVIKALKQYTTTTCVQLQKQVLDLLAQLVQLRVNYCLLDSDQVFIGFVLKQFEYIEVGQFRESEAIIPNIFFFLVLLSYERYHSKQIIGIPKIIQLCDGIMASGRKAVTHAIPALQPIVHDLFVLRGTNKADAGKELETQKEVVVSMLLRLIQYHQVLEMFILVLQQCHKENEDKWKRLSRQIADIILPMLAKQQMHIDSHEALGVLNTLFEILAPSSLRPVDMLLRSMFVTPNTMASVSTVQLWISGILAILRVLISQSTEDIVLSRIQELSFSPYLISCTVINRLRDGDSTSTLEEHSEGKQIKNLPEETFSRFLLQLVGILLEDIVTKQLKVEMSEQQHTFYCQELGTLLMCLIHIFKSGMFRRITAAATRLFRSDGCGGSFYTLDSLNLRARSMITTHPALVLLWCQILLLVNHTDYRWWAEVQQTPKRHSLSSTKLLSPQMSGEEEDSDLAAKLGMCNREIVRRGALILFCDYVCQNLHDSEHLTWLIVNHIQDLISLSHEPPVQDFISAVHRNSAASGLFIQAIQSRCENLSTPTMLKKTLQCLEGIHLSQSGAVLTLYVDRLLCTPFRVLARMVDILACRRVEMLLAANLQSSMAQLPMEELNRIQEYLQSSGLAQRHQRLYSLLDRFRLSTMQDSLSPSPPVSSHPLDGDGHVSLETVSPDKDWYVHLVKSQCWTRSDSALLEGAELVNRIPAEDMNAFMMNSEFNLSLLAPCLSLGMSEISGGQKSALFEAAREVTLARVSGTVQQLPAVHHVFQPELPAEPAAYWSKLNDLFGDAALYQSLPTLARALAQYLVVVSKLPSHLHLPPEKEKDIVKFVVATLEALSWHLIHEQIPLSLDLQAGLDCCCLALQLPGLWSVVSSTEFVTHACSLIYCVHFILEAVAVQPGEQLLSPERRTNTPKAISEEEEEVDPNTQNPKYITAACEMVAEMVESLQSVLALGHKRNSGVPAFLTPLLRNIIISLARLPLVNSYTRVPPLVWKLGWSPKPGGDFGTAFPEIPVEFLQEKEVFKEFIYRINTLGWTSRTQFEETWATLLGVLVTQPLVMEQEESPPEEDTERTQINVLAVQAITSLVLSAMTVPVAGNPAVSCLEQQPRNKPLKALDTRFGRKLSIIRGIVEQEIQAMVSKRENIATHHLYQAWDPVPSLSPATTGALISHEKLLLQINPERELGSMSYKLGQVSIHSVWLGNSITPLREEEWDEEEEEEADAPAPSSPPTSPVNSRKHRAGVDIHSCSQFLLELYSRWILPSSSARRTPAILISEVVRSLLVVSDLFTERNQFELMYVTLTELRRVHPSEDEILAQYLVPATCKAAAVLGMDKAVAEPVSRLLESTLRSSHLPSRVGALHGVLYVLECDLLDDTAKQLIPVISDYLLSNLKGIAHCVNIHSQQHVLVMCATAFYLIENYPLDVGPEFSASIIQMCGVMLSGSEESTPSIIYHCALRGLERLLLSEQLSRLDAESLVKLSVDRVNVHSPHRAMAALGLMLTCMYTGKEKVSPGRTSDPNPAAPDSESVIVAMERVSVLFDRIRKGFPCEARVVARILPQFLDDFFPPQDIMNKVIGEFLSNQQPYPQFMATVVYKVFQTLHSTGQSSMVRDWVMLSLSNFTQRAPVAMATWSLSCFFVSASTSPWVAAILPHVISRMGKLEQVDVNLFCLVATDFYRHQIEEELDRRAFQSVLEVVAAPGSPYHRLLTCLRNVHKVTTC
# What was measured:
# mHTT = target: T1, mHTT (Homo sapiens, UniProt P42858, INS38QQQQQQQQQQQQQQQQQQQQQQQQQQ); test: HTRF of mHTT in HD patient iPSC-derived neurons (Q47); assay type: cell-based; conditions: HTRF 2B7/MW1, method similar to 5.1
# T1 construct: endogenous in cells; host or cells: HD patient iPSC-derived neurons (Q47)
# wtHTT = wtHTT (Mus musculus, UniProt P42859); conditions: Hdh^Q140/Q7 mouse cortical neurons, treated 2 days, Western-blots (antibody 2166)
# [1] = target: T2, human HTT full-length protein (Q128) (Homo sapiens, UniProt P42858); test: mHTT level in heads of Huntington's disease Drosophilae (HTRF); assay type: in vivo, Drosophila; conditions: food with 10 μM in 400 μL DMSO, 6 days, head protein, HTRF 2B7/MW1
# T2 construct: transgenic Drosophilae expressing human HTT full-length protein (Q128); tissue Bloomington Drosophila Stock Center (fly lines); host or cells: heads of elav-GAL4 x UAS-fl-HTT-Q128 Drosophila
# Description: Nervous system driver line elav-GAL4 (c155), HTT expressing lines UAS-fl-HTT-Q16 and UAS-fl-HTT-Q128 were from Bloomington Drosophila Stock Center (http://flystocks.bio.indiana.edu/) and kept in a 25° C. incubator.
# Crosses were set up between virgin female Drosophilae carrying elav-GAL4 driver and the UAS-fl-HTT-Q16 or UAS-fl-HTT-Q128 male Drosophilae to generate a transgenic Drosophilae driven by elav-GAL4 to express human HTT full-length protein (Q16) or (Q128) in the nervous system.
# […]. The negative control group was given the corresponding solvent DMSO, and the positive drug groups was given the corresponding positive drug.
# Drosophilae were kept in standard food at 25° C. The newly hatched Drosophilae were transferred to vials with food containing the positive drug (10 μM in 400 μL DMSO) or DMSO for control. The corn food was changed every other day.
# After fed for 6 consecutive days, the Drosophila head protein was extracted on the 7th day. The mHTT level was measured by HTRF (antibody pair: 2B7/MW1), where each sample included head proteins from five Drosophila (FIG. 14). […]
structure (smiles),measurement,setting,value
O=c1cc(-c2ccccc2)c2c(O)cc(O)cc2o1 [compound 2],mHTT levels in HD patient iPSC-derived neurons,mHTT,Decreased mHTT levels
same,level of wtHTT in cortical neurons,wtHTT,hardly affected
same,mHTT levels in transgenic Drosophilae,[1],reduced
